Biological target: Butyrophilin subfamily 3 member A1 (Homo sapiens, UniProt O00481)
Assay: Binding affinity to C-terminal 6His-tagged BTN3A1 full interaction domain (unknown origin) expressed in Escherichia coli BL21 (DE) by isothermal calorimetric titration method

The chains behind the UniProt entries cited, without tags or fusion partners. Where a name states a change or a piece, a line headed by the entry shows the natural chain unless it says otherwise.
UniProt O00481: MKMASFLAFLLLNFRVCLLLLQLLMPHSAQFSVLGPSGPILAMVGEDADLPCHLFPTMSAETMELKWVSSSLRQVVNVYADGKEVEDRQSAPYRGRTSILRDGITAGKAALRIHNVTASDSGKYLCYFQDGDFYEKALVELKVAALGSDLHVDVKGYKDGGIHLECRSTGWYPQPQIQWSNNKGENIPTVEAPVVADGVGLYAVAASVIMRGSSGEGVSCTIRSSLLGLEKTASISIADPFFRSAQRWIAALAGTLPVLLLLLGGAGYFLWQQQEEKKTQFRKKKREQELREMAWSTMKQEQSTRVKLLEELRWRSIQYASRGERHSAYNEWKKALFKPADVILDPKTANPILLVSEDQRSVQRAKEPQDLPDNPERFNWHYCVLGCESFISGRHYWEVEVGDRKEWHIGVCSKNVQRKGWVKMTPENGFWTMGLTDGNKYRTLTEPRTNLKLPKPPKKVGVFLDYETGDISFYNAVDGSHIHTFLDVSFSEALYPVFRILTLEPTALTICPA

In the case of `C/C(=C\CCP(=O)(O)CP(=O)(O)O)CO`, the Kd is reported as 111 µM.

Reference: ChEMBL document CHEMBL4364297, “Probing the Ligand-Binding Pocket of BTN3A1” (J Med Chem, 2019)
